# scFv variants of Ab-14 (light chain) against a SARS-CoV-2 spike peptide

The target is the same throughout: PDVDLGDISGINAS, from the HR2 region of SARS-CoV-2 spike.

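Phage display of a naive human antibody library on the peptide gave the parent. These sequences belong to a second round, designed from the earlier measurements on random variants of the parent. Several design methods are mixed in this list. The assay is AlphaSeq: two haploid yeast populations carry antibody and antigen on their surface. Pairs that bind mate more often; barcode pairs of the diploids are counted by sequencing. Read counts were normalised to the haploid input and turned into Kd by a linear fit to BCL2-family pairs of known affinity, for each replicate. There are six technical replicates.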

Parent: Ab-14, a human scFv built as VH, three GGGGS repeats, VL. Only the CDRs of the light chain vary.
VH: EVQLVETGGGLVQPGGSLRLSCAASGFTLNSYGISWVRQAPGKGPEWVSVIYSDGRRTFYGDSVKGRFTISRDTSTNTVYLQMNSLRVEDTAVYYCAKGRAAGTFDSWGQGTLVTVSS
VL: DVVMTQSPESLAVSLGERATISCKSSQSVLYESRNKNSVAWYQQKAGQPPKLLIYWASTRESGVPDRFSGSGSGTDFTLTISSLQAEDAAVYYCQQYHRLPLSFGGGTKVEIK

The parent's light chain CDRs are KSSQSVLYESRNKNSVA, WASTRES, QQYHRLPLS; each variant's own CDRs replace them letter for letter.
Variants here have more than six changes.
Affinities are written as log10 Kd with Kd in nM; a lower number is a better binder.
A mean of the replicates is given; it leaves out those without a signal.
"ND" means that the variant was in the library but no mating with the target was seen in that replicate; the authors take this as a sign of poor binding, and no number exists.
Of ten entries with the parent sequence, four were seen in most replicates (averages 0.34 to 2.37), three in one and three in none, so single entries are noisy.

With TISQLMNMGQFAINSVA / QASIRNA / QQYDRLPLI the result was 1.29, 0.84, 1.11, 0.81, 0.69, 0.89 (mean 0.94).
With KISQMVRVGSTVSNSIA / EMVTRCN / QQYHRLPLA the result was ND, ND, ND, ND, ND, ND.
With KLQFSSGMLQRNKNSVA / SASTRES / QQYHRLPLS the result was 0.30, 0.16, -0.13, -0.08, 0.14, 0.27 (mean 0.11).
With KIYELGKGSIKTNNNIA / QTDIRML / QSYNRLPLS the result was 1.58, 1.34, 1.25, 1.50, 1.38, 2.02 (mean 1.51).
With KSSMLVEYEDRNCNSVA / WGSEREF / QQYHRMPLS the result was ND, ND, ND, ND, 1.84, ND.
With KISYLDYRGSQWHNNIA / EGSQRAE / QQYIRLPLN the result was 1.02, 1.39, 0.22, 0.50, 0.75, 0.69 (mean 0.76).
With QLSMNLEIYDQEQWAVA / MGEMRTE / QQYHKLPLS the result was ND, ND, ND, ND, ND, ND.
With IVSQLMLWGMHVKNSIA / EAQTRIN / QQYERLPLF the result was -0.52, 0.41, -0.40, -0.20, -0.23, -0.60 (mean -0.26).
With KLQQESDNMNDMQNSVA / EQSMVQY / QHYWRLPLT the result was ND, ND, ND, ND, ND, ND.
With NISHFMDVTAKNINNVA / EMTMREE / QQYHHLPLS the result was ND, ND, ND, ND, ND, ND.
With KLEQSTLYESRNANSVA / NASTRMS / QQYKRLPLS the result was 0.26, 0.14, 0.08, 0.26, 0.37, 0.08 (mean 0.20).
With TLVQSVMGGSRTRNSVA / NAETRYD / QHYHRLPLS the result was 0.53, 0.87, 0.89, 1.03, 0.81, 0.83 (mean 0.83).
With KLWAYLQGLERNMQNIA / DGIYRST / QQYDRLPLS the result was 0.72, 0.53, 0.80, 0.48, 0.63, 0.75 (mean 0.65).
With SLMDNIWVEDTYRNAIA / DRNVRAK / QQYHRLPLS the result was 0.77, 1.05, 0.89, 0.63, 0.77, 1.29 (mean 0.90).
With KITLIFSNKGNSRHSVA / NAETLAH / QQYYRLPLM the result was 1.68, 2.82, 2.35, 1.86, 1.73, 1.56 (mean 2.00).
With RLAMGHDNYMHEGNHVA / EVSCRAT / QQYAHLPLV the result was 1.94, 1.53, 2.66, 1.31, 3.07, 1.50 (mean 2.00).
With KVVKMKSEGDYHAANVA / NANLASD / QQYYRLPLI the result was 0.69, 1.55, 0.08, 1.33, 0.68, 0.95 (mean 0.88).
With KVSEFMRGLTQRKDSIA / DNVTRNS / QQYDRLPLS the result was ND, ND, 2.99, 2.24, 2.42, 2.67 (mean 2.58).
With SITQLVGYGQRNKNSVA / QMETREN / QQYDRLPLS the result was -0.04, 0.21, 0.22, 0.19, 0.04, 0.19 (mean 0.14).
With KVSQSAPMESRNANSVA / NASTREE / QQYHRLPLS the result was -0.04, 0.02, -0.05, -0.08, -0.02, 0.09 (mean -0.02).
With ILQQSMLYESRMKNSVA / NASQRWS / QQYHRLPLS the result was 0.61, 0.42, 0.41, 0.49, 0.35, 0.55 (mean 0.47).
With QLEVFPLQAGSTQAAIA / DASHSTP / QQYARLPLM the result was 0.46, -0.12, 0.33, 0.31, -0.06, 0.14 (mean 0.18).
With NFSQMVLTGSTLRNSVA / HASTRCN / QQYHRLPLI the result was 1.04, 0.94, 0.96, 0.80, 1.29, 1.65 (mean 1.11).
With KISQAYLYESRNKNSVA / QANHREQ / QQYHRLPLS the result was 0.39, 0.80, 0.65, 0.44, 0.15, 0.31 (mean 0.46).
With HITYGMYVSGRYISNIA / QAETRAK / QQYDRLPLM the result was 0.18, 0.09, -0.02, -0.16, -0.43, -0.06 (mean -0.07).
With MIHEMMGLMSHKQSSIA / DNSTREE / QQYDRLPLS the result was ND, ND, ND, ND, 2.45, ND.
With KLTSITGTEKVRGNNVA / EMETREQ / QQYNRLPLS the result was 0.65, 0.38, 0.39, 0.56, 1.07, 0.48 (mean 0.59).
With SLTSHEEEKEGAEASVA / EAVMLES / QQYHRLPLM the result was 1.06, 1.40, 1.02, 2.40, 1.18, 2.17 (mean 1.54).
With RLNDYQYAITGDTYAIA / NARETLM / QQYMRLPLT the result was 1.05, 0.35, 0.64, 0.38, 0.27, 0.78 (mean 0.58).
With KISMLINMTFEMSNNVA / EMATREK / QQYNRLPLS the result was ND, ND, ND, ND, ND, ND.
With MISQLMNMGQFAINSVA / QASLRCN / QQYDRLPLE the result was ND, ND, ND, ND, 2.01, 2.37 (mean 2.19).
With KLPQQTLYETRNKNSVA / TASTREE / QQYHRLPLS the result was 0.96, 0.75, 0.35, 0.58, 0.95, 0.81 (mean 0.73).
With KLRQVTGYESYNKNSVA / QTSTRAN / QDYHRLPLS the result was 1.87, 2.34, 1.44, 2.77, 2.29, 2.37 (mean 2.18).

Excerpt, the first 5 entries:

For TISQLMNMGQFAINSVA / QASIRNA / QQYDRLPLI, the assay gave 1.29, 0.84, 1.11, 0.81, 0.69, 0.89 (mean 0.94).
For KISQMVRVGSTVSNSIA / EMVTRCN / QQYHRLPLA, the assay gave ND, ND, ND, ND, ND, ND.
For KLQFSSGMLQRNKNSVA / SASTRES / QQYHRLPLS, the assay gave 0.30, 0.16, -0.13, -0.08, 0.14, 0.27 (mean 0.11).
For KIYELGKGSIKTNNNIA / QTDIRML / QSYNRLPLS, the assay gave 1.58, 1.34, 1.25, 1.50, 1.38, 2.02 (mean 1.51).
For KSSMLVEYEDRNCNSVA / WGSEREF / QQYHRMPLS, the assay gave ND, ND, ND, ND, 1.84, ND.

A sequence measured in both rounds can read differently, since the two assays cover different ranges.
Nonspecific signal, from three strains lacking the peptide, appeared in 4% of pairings of all light chain designs, centred on 2.64 (5% of these signals below 1.59); values are not corrected for it.
The authors averaged sequences with at least three values out of six and counted those with two or fewer as poor binders.

The measurements come from Li et al. 2023 (doi:10.1038/s41467-023-39022-2) through the FLAb antibody collection.